From PMC5845004, “Novel (p)ppGpp Binding and Metabolizing Proteins of Escherichia coli” (mBio, 2018) come the findings set out here.

Chains of the proteins cited; added tags and fusions are not shown. Lines headed by an entry give the natural chain unless they say otherwise; changes in a name come on top.
UniProt P0A9M5: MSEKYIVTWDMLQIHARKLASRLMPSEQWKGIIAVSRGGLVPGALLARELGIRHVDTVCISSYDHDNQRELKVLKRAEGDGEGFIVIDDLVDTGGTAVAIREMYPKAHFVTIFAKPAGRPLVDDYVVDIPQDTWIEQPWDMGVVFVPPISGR

The target of the experiment is Gpt (Escherichia coli, UniProt P0A9M5). The experiment can be described thus: DRaCALA competition assay, Gpt. To be noted: 20 µM Gpt, 2 nM hot ppGpp, 100 µM cold competitor. Format: binding, E. coli.

As for `O=P(O)(O)OC[C@H]1OC(OP(=O)(O)OP(=O)(O)O)[C@H](O)[C@@H]1O` (stereo partly shown) [PRPP, phosphoribosyl pyrophosphate], the “competition for bound [α-32P]ppGpp on Gpt” value was “partially outcompete”.
